Assay results reported in US7053189B2 (Oregon Health & Sciences University, priority 1990, dated 2006).
One block for each compound: values may come before it.

Amino acid sequences for entries named in this document (tags omitted). Chains listed by the source or under a name are the forms on record and can include a tag or linker. Residues count along the entry.
UniProt A0ACM8QMZ9, 1-443: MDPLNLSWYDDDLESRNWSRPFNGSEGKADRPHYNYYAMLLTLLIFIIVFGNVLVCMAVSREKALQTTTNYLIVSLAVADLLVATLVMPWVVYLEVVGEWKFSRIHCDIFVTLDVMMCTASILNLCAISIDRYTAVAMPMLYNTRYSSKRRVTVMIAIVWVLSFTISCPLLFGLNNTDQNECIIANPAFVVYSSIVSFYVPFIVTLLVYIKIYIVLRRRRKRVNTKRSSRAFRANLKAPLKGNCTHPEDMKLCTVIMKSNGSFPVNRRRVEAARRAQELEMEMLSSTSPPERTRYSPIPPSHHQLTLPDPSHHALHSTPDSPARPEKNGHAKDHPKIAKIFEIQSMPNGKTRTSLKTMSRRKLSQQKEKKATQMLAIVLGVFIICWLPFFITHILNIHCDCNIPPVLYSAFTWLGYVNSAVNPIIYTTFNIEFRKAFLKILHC
UniProt P14416, whole entry: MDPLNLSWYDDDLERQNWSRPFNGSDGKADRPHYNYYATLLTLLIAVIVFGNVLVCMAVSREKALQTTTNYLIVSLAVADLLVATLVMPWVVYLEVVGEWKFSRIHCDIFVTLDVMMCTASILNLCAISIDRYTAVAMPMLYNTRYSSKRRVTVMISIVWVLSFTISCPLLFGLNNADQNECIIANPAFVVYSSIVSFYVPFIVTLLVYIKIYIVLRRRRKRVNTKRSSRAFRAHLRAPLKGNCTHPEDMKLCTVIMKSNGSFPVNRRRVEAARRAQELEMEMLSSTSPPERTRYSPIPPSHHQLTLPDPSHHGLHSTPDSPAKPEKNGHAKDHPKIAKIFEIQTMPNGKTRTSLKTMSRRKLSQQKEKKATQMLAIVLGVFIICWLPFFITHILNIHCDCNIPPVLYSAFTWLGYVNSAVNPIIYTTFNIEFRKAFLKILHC
UniProt P21917, with tags, fused parts or gaps P18R/DEL271-302/N396T: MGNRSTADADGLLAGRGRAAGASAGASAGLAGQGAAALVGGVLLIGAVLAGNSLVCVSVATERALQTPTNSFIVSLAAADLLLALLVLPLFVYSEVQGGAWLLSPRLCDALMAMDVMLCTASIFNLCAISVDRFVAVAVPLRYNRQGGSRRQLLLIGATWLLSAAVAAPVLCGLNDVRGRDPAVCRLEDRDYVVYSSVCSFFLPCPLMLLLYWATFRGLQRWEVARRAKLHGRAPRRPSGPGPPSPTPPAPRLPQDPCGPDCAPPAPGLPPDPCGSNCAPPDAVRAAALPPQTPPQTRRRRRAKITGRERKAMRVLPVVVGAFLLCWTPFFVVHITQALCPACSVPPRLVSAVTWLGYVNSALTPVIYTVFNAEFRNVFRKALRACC
UniProt P61169, whole entry: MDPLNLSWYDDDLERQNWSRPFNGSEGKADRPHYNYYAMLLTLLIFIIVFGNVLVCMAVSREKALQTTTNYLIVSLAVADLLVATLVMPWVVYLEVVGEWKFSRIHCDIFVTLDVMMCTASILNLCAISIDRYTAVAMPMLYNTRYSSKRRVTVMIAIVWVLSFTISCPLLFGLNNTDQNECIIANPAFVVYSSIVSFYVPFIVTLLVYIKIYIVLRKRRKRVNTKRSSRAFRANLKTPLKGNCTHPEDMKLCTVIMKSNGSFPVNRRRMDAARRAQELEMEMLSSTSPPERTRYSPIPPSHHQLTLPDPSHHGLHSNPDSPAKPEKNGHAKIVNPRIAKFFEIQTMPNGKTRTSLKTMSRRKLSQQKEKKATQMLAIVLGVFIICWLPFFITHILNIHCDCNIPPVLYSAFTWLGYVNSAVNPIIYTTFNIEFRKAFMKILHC

Columns and labels:
[1] = biological target: D2 in pig anterior pituitary homogenates (Sus scrofa, UniProt A0ACM8QMZ9)
human D2 (long) = human D2 (long) (Homo sapiens, UniProt P14416); test: D2 dissociation constants, human D2 receptor expressed in GH(4)ZR(7) cells
[2] = biological target: human D4 dopamine receptor (Homo sapiens, UniProt P21917, DEL271-302/N396T/P18R); test: [3H]spiperone binding to membranes of COS-7 cells transfected with human D4 receptor construct; conditions: read-out: D4Ki
rat D2 (long) = rat D2 (long) (Rattus norvegicus, UniProt P61169); test: D2 dissociation constants, rat D2 (long)

SMILES: OCCN1CCN(CCCN2c3ccccc3Sc3ccc(C(F)(F)F)cc32)CC1
[formula] (ratio D2Ki to D4Ki) [1]: 0.01

Ki (human D2 (long)): 0.0016 µM
SMILES: CCN1CCC[C@H]1CNC(=O)c1c(O)c(Cl)cc(Cl)c1OC

SMILES: CCN1CCC[C@H]1CNC(=O)c1cc(S(N)(=O)=O)ccc1OC
Ki [2]: 0.063 µM

SMILES: Oc1cc2c(cc1O)C(c1ccccc1)CNCC2 (stereo not shown) [SKF-38393]
Ki (rat D2 (long)): 9.56 µM
